This note sets out measurements from patent publication EP4831176A1, “BICYCLIC FUSED HETEROAROMATIC RING DERIVATIVE, AND PHARMACEUTICAL COMPOSITION AND USE THEREOF” (dated 2026).

Chains of the proteins cited; added tags and fusions are not shown.
UniProt O75530, whole entry: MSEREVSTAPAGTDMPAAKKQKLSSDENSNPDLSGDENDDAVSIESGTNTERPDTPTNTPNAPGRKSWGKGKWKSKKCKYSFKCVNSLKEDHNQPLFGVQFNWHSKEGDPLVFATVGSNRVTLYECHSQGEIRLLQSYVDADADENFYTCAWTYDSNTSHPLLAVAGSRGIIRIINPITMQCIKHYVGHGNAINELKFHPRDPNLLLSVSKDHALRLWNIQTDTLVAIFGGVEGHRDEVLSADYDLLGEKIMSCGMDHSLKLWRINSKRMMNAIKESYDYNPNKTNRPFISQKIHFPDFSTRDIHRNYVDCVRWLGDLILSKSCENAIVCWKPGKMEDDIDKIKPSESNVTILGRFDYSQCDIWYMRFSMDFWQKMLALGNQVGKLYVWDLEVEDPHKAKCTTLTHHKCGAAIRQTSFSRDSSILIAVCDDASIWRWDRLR

The target in test [1] is EED protein (Homo sapiens, UniProt O75530). The test can be described thus: EED protein degradation in Karpas-422 cells, In-cell western (ICW). Particulars: 18 hours incubation. An excerpt: In this experiment, In-cell western (ICW) method was used to quantitatively analyze the EED protein expression level in Karpas-422 cells to detect the degradation activity of the compounds on the target protein. The specific steps were as follows: • 1. Karpas-422 cells were purchased from Nanjing Cobioer (Catalog No. CBP60629), subcultured and maintained in logarithmic growth state using RPMI-1640 complete medium (containing 10% v/v fetal bovine serum) according to the supplier's recommended conditions. […] One day before cell seeding, a 384-well plate was coated with 30 µL of coating buffer (phosphate buffered saline containing 30 µg/mL poly-D-lysine) at room temperature for 2 hours. The coating solution was then discarded, and the plate was washed once with 90 µL of phosphate buffered saline, which was then discarded. The plate was allowed to air dry naturally in a clean bench, wrapped around the edges with Parafilm to prevent moisture, and stored in a 4°C refrigerator until use. • 3. Before cell seeding, cells were collected in a centrifuge tube, centrifuged at 250 rcf for 3 minutes, and the culture medium was discarded. The cells were resuspended in fresh complete medium, and 20 µL of the cell suspension was taken to calculate the cell concentration using a Countstar cell counter. After adjusting the density, cells were seeded into the prepared coated plate at 15,000 cells/45 µL and pre-incubated in a 37°C, 5% CO2 incubator for 4 hours. • 4. The negative and positive control groups were treated with 5 µL of control solution (serum-free medium containing 1% v/v DMSO). Compound gradient dilutions were prepared using the control solution, and 5 µL of the dilutions were added to the corresponding culture wells. The final concentration of DMSO in the test was 0.1% v/v. Subsequently, the plate was incubated in a 37°C, 5% CO2 incubator for 18 hours. • 5. The culture plate was removed, and cells were fixed by directly adding 10 µL of fixative solution (phosphate buffered saline containing 3% v/v glutaraldehyde) to the cells and incubating at room temperature for 30 minutes. The liquid was discarded. Subsequently, cells were treated with 30 µL of permeabilization staining solution (phosphate buffered saline containing 0.1% v/v Triton X-100 and 20 µg/mL Hoechst 33342) at room temperature for 30 minutes. The permeabilization solution was discarded, and the fluorescence value (excitation at 360 nm, emission at 460 nm) was read on a microplate reader. • 6. 50 µL of repair solution (50 mM citric acid buffer) was added to all wells, and the plate was incubated at 70°C for 2 hours on a constant temperature incubation shaker. The microplate was then removed, equilibrated to room temperature, and the liquid was discarded. • 7. A sufficient amount of antibody dilution buffer (Tris Buffered Saline-Tween solution containing 1% w/v bovine serum albumin) was prepared and stored in a 4°C refrigerator until use. • 8. Primary antibody dilution (EED antibody diluted 1:1000 with antibody dilution buffer) was prepared. 30 µL of antibody dilution buffer without antibody was added to the negative control group. 30 µL of the primary antibody dilution was added to the cells in the other groups, and the plate was incubated overnight at 4°C. • 9. The primary antibody dilution was discarded. The plate was washed 3 times with 90 µL of Tris Buffered Saline-Tween solution, and the wash solution was discarded. Secondary antibody dilution (HRP-linked antibody diluted 1:500 with antibody dilution buffer) was prepared, and 30 µL was added to the cells. The plate was incubated at room temperature for 2 hours. • 10. The secondary antibody dilution was discarded. The plate was washed 3 times with 90 µL of Tris Buffered Saline-Tween solution, and the wash solution was discarded. 30 µL of TMB substrate solution was added, and the plate was incubated at room temperature in the dark for 15 minutes. Then, 30 µL of stop solution (2 M sulfuric acid) was added to terminate the reaction. […]

Test [2] relates to Pfeiffer cells. The test can be described thus: Proliferation inhibition of Pfeiffer tumor cells, Cell Titer-Glo. Particulars: read-out: CTG IC50, 144 hours incubation. An excerpt:
In this experiment, Cell Titer-Glo reagent was used to quantitatively analyze the proliferation activity of Pfeiffer cells to detect the inhibitory ability of the compounds on tumor cell proliferation. The specific steps were as follows: • 1. Pfeiffer cells were purchased from Nanjing Cobioer (purchased from ATCC, Catalog No. #CRL2632), subcultured and maintained in logarithmic growth state using RPMI-1640 complete medium (containing 10% v/v fetal bovine serum) according to the supplier's recommended conditions. […] Before cell seeding, cells were collected in a centrifuge tube, centrifuged at 250 rcf for 3 minutes, and the culture medium was discarded. The cells were resuspended in fresh complete medium, and 20 µL of the cell suspension was taken to calculate the cell concentration using a Countstar cell counter. After adjusting the density, cells were seeded into a 384-well plate at 2,000 cells/45 µL and pre-incubated in a 37°C, 5% CO2 incubator for 4 hours. • 3. The negative and positive control groups were treated with 5 µL of control solution (non-complete medium containing 1% v/v DMSO). Compound gradient dilutions were prepared using non-complete medium, and 5 µL of the dilutions were added to the corresponding culture wells. The final concentration of DMSO in the test was 0.1% v/v. Subsequently, the plate was incubated in a 37°C, 5% CO2 incubator for 144 hours. • 4. 40 µL of Cell Titer-Glo reagent was added directly to the cell culture, and the plate was incubated at room temperature in the dark for 30 minutes. The luminescence value was then read on a plate reader, and the results were used to analyze the cell proliferation ratio and compound activity. • 5. The signal value of the negative control group was set as Bottom, and the signal value of the positive control group was set as Top. The compound concentration value (logarithm) was the X-axis, and the luminescence reading at the corresponding concentration was the Y-axis, with HillSlope as the slope factor. A four-parameter logistic model (4PL logistic model) was used for fitting, and the calculation method was as follows:Y = Bottom + (Top - Bottom) / (1 + 10^((Log IC50 - X) × HillSlope))
After fitting, the IC50 value of the compound was calculated, and the proliferation inhibitory activity of the compound was compared based on the IC50 value.

For the compound `Cc1ncn2c(NCc3c(F)ccc4c3CCO4)ncc(-c3ccc(C4CCN(CC5CCN(c6ccc7c(C8CCC(=O)NC8=O)nn(C)c7c6)CC5)CC4)cc3)c12` (centres unmarked), the greatest degradation seen (Dmax) in test [1] stood at 58%. Further, in test [2], the IC50 worked out at 1.7 nM.
Consider `Cn1nc(C2CCC(=O)NC2=O)c2cnc(N3CCC(CN4CCC(n5cc(-c6cnc(NCc7c(F)ccc8c7CCO8)n7cnc(Cl)c67)cn5)CC4)CC3)cc21` (centres unmarked), for which the Dmax in test [1] was 55%. Also, the IC50 in test [2] was determined as 0.4 nM.
Take `Cn1nc(C2CCC(=O)NC2=O)c2ccc(N3CCC(CN4CCC(c5ncc(-c6cnc(NCc7c(F)ccc8c7CCO8)n7nnnc67)cn5)CC4)CC3)cc21` (centres unmarked): in test [1], the greatest degradation seen (Dmax) amounted to 68%. The IC50 in test [2] was determined as 1.1 nM.
As for `Cn1nc(C2CCC(=O)NC2=O)c2ccc(N3CC4(CC(CN5CCC(c6ccc(-c7cnc(NCc8c(F)ccc9c8CCO9)n8cnnc78)cc6)CC5)C4)C3)cc21` (centres unmarked), the Dmax in test [1] is 59%. In test [2], the IC50 is 0.07 nM.
The corresponding values for `Cn1nc(C2CCC(=O)NC2=O)c2ccc(N3CCC(CN4CCC(c5ccc(-c6cnc(NCc7c(F)ccc8c7CCO8)n7cnc(Cl)c67)cn5)CC4)CC3)cc21` (centres unmarked) are 70% and 0.5 nM.
`O=C1CCC(N2C(=O)c3ccc(N4CCC(CN5CCC(n6cc(-c7cnc(NCc8c(F)ccc9c8CCO9)n8cnc(Cl)c78)cn6)CC5)CC4)cc3C2=O)C(=O)N1` (centres unmarked) gave a Dmax in test [1] of 51%. The half-inhibitory concentration (IC50) in test [2] was determined as 15 nM.
With `Cn1nc(C2CCC(=O)NC2=O)c2ccc(N3CCC(F)(CN4CCC(n5cc(-c6cnc(NCc7c(F)ccc8c7CCO8)n7cnc(Cl)c67)cn5)CC4)CC3)cc21` (centres unmarked), the greatest degradation seen (Dmax) in test [1] is recorded as 51%. Further, the IC50 in test [2] came out at 7 nM.
In test [1], `Cn1c(=O)n(C2CCC(=O)NC2=O)c2ccc(N3CCC(CN4CCC(n5cc(-c6cnc(NCc7c(F)ccc8c7CCO8)n7cnc(Cl)c67)cn5)CC4)CC3)cc21` (centres unmarked) gave a maximal degradation (Dmax) of 67%. Also, the IC50 in test [2] stood at 0.1 nM.
As to `Cn1nc(C2CCC(=O)NC2=O)c2ccc(N3CCC(CN4CCC(c5ccc(-c6cnc(NCc7c(F)ccc8c7CCO8)n7cnnc67)cn5)CC4)CC3)cc21` (centres unmarked), the Dmax in test [1] is 67%. Further, in test [2], the IC50 was 0.9 nM.
Consider `Cn1nc(C2CCC(=O)NC2=O)c2ccc(N3CCC(CN4CCC(n5cc(-c6cnc(NCc7c(F)ccc8c7CCO8)n7nnnc67)cn5)CC4)CC3)cc21` (centres unmarked), for which the greatest degradation seen (Dmax) in test [1] was found to be 52%. In addition, in test [2], the IC50 turned out to be 8 nM.
The matching figures for `Cn1c(=O)n(C2CCC(=O)NC2=O)c2ccc(N3CCC(CN4CCC(c5ccc(-c6cnc(NCc7c(F)ccc8c7CCO8)n7cnnc67)cc5)CC4)CC3)cc21` (centres unmarked): 70% and 2 nM.
The corresponding values for `Cn1c(=O)n(C2CCC(=O)NC2=O)c2ccc(N3CCC(NC(=O)c4ccc(-c5cnc(NCc6c(F)ccc7c6CCO7)n6cnc(Cl)c56)cc4)C(F)(F)C3)cc21` (centres unmarked) are 57% and 2.7 nM.
In the case of `Cn1nc(N2CCC(=O)NC2=O)c2ccc(N3CCC(CN4CCC(n5cc(-c6cnc(NCc7c(F)ccc8c7CCO8)n7cnc(Cl)c67)cn5)CC4)CC3)cc21`, the Dmax in test [1] is 41%. For the same compound, the IC50 in test [2] is 8 nM.
With `Cc1cc(C2CCN(CC3CCN(c4ccc5c(C6CCC(=O)NC6=O)nn(C)c5c4)CC3)CC2)ccc1-c1cnc(NCc2c(F)ccc3c2CCO3)n2cnnc12` (centres unmarked), in test [1], the maximal degradation (Dmax) amounted to 70%. Moreover, the 50% inhibitory concentration (IC50) in test [2] stood at 1 nM.
For the compound `Cn1nc(C2CCC(=O)NC2=O)c2ccc(N3CCC(C(=O)N4CCC(n5cc(-c6cnc(NCc7c(F)ccc8c7CCO8)n7cnc(Cl)c67)cn5)CC4)CC3)cc21` (centres unmarked), the Dmax in test [1] amounted to 48%. Further, the 50% inhibitory concentration (IC50) in test [2] came out at 1.3 nM.
`Cn1nc(C2CCC(=O)NC2=O)c2cc(F)c(N3CCC(CN4CCC(c5ccc(-c6cnc(NCc7c(F)ccc8c7CCO8)n7cnnc67)cc5)CC4)CC3)cc21` (centres unmarked) had a Dmax in test [1] of 63%. Also, the 50% inhibitory concentration (IC50) in test [2] came out at 0.9 nM.
`O=C1CCC(Nc2ccc(N3CCN(C4CCN(Cc5ccc(-c6cnc(NCc7c(F)ccc8c7CCO8)n7cnnc67)cc5)CC4(F)F)CC3)c(F)c2)C(=O)N1` (centres unmarked) registered a Dmax in test [1] of 30%. Also, the half-inhibitory concentration (IC50) in test [2] is 30 nM.
The compound `Cn1nc(C2CCC(=O)NC2=O)c2ccc(N3CCC(CN4CCC(c5ccc(-c6cnc(NCc7c(F)ccc8c7CCO8)n7cnnc67)nc5)CC4)CC3)cc21` (centres unmarked) yielded a Dmax in test [1] of 66%. The IC50 in test [2] is < 0.03 nM.
`Cn1nc(C2CCC(=O)NC2=O)c2ccc(N3CCC(CN4CCC(c5ccc(-c6cnc(NCc7c(F)ccc8c7CCO8)n7cnc(Br)c67)cc5)CC4)CC3)cc21` (centres unmarked): the Dmax in test [1] was found to be 61%. The IC50 in test [2] came out at 2.2 nM.
In test [1], `Cn1nc(C2CCN(CC3CCN(c4ccc5c(C6CCC(=O)NC6=O)nn(C)c5c4)CC3)CC2)cc1-c1cnc(NCc2c(F)ccc3c2CCO3)n2cnc(Cl)c12` (centres unmarked) returned a maximal degradation (Dmax) of 59%. In addition, the half-maximal inhibitory concentration (IC50) in test [2] worked out at 2 nM.
On to `Cn1nc(C2CCC(=O)NC2=O)c2ccc(N3CCC(CN4CCC(c5ccc(-c6cnc(NCc7c(F)ccc8c7CCO8)n7cnc(I)c67)cc5)CC4)CC3)cc21` (centres unmarked), for which the Dmax in test [1] came to 56%. In test [2], the IC50 turned out to be 9 nM.
The corresponding values for `Cn1nc(C2CCC(=O)NC2=O)c2ccc(N3CCC(CN4CCC(c5cnc(-c6cnc(NCc7c(F)ccc8c7CCO8)n7cnc(Cl)c67)nc5)CC4)CC3)cc21` (centres unmarked) are 62% and 4 nM.
